Source: patent US11059801B2

How the values were obtained:
BRD4 = BRD4 (Homo sapiens (Human), UniProt O60885); experiment: BRD4 AlphaScreen; conditions: read-out: IC50 (nM) BRD4
[1] = molecular target: BRD4 adjoined to nanoluciferase (Nluc) (Homo sapiens (Human), UniProt O60885+Q96SW2); experiment: BRD4 Dual Luciferase Assay; conditions: for DC50: read-out: BRD4 DC50 (nM) Dual Luciferase

Row | Compound | IC50 (BRD4) [nM] | DC50 [1] [nM] | pDC50 (dual luc) [1]
1 | Cc1sc2c(c1C)C(c1ccc(Cl)cc1)=N[C@@H](CC(=O)NCCCCNC(=O)CNc1cccc3c1CN(C1CCC(=O)NC1=O)C3=O)c1nnc(C)n1-2 (stereo partly shown) [dBET35] | 7.2 | – | –
2 | Cc1sc2c(c1C)C(c1ccc(Cl)cc1)=N[C@@H](CC(=O)NCCCCC(=O)Nc1cccc3c1CN(C1CCC(=O)NC1=O)C3=O)c1nnc(C)n1-2 (stereo partly shown) [dBET42] | 27 | – | –
3 | Cc1sc2c(c1C)C(c1ccc(Cl)cc1)=N[C@@H](CC(=O)NCCOCCOCCOc1cccc3c1C(=O)N(C1CCC(=O)NC1=O)C3=O)c1nnc(C)n1-2 (stereo partly shown) [dBET40] | 89 | – | –
4 | Cc1sc2c(c1C)C(c1ccc(Cl)cc1)=N[C@@H](CC(=O)NCCCCNC(=O)Cc1cccc3c1C(=O)N(C1CCC(=O)NC1=O)C3=O)c1nnc(C)n1-2 (stereo partly shown) [dBET36] | 80 | 47 | –
5 | Cc1sc2c(c1C)C(c1ccc(Cl)cc1)=N[C@@H](CC(=O)NCCCCCC(=O)NCc1cccc3c1C(=O)N(C1CCC(=O)NC1=O)C3=O)c1nnc(C)n1-2 (stereo partly shown) [dBET37] | 13 | – | –
6 | Cc1sc2c(c1C)C(c1ccc(Cl)cc1)=N[C@@H](CC(=O)NCCCOCCCNC(=O)COc1cccc3c1C(=O)N(C1CCC(=O)NC1=O)C3=O)c1nnc(C)n1-2 (stereo partly shown) [dBET38] | 31 | 15 | –
7 | Cc1sc2c(c1C)C(c1ccc(Cl)cc1)=N[C@@H](CC(=O)NCCCCCCCC(=O)Nc1cccc3c1CN(C1CCC(=O)NC1=O)C3=O)c1nnc(C)n1-2 (stereo partly shown) [dBET44] | 30 | – | –
8 | Cc1sc2c(c1C)C(c1ccc(Cl)cc1)=N[C@@H](CC(=O)NCCCCCCNC(=O)c1ccc3c(c1)C(=O)N(C1CCC(=O)NC1=O)C3=O)c1nnc(C)n1-2 (stereo partly shown) [dBET15] | – | 335 | 6.475
9 | Cc1sc2c(c1C)C(c1ccc(Cl)cc1)=N[C@@H](CC(=O)NCCCOCCOCCOCCCNC(=O)COc1cccc3c1C(=O)N(C1CCC(=O)NC1=O)C3=O)c1nnc(C)n1-2 (stereo partly shown) [dBET9] | 15 | – | –
10 | Cc1sc2c(c1C)C(c1ccc(Cl)cc1)=N[C@@H](CC(=O)NCCCCCCNC(=O)COc1cccc3c1C(=O)N(C1CCC(=O)NC1=O)C3=O)c1nnc(C)n1-2 (stereo partly shown) [dBET5] | – | 68 | 7.167
11 | Cc1sc2c(c1C)C(c1ccc(Cl)cc1)=N[C@@H](CC(=O)NCCNC(=O)COc1cccc3c1C(=O)N(C1CCC(=O)NC1=O)C3=O)c1nnc(C)n1-2 (stereo partly shown) [dBET3] | – | 22 | 7.663
12 | Cc1sc2c(c1C)C(c1ccc(Cl)cc1)=N[C@@H](CC(=O)NCCCCCCC(=O)Nc1cccc3c1CN(C1CCC(=O)NC1=O)C3=O)c1nnc(C)n1-2 (stereo partly shown) [dBET43] | 25 | – | –
13 | Cc1sc2c(c1C)C(c1ccc(Cl)cc1)=N[C@@H](CC(=O)NCc1ccc(CNC(=O)COc3cccc4c3C(=O)N(C3CCC(=O)NC3=O)C4=O)cc1)c1nnc(C)n1-2 (stereo partly shown) [dBET41] | 63 | 25 | –
